Source: patent US20250313631A1 (HUMMINGBIRD BIOSCIENCE PTE, published 2025)

Legend:
[1] = biological target: T1, recombinant human VISTA (His-tagged) (human, UniProt Q9H7M9 33-194); assay: BLI (Octet), 1:1 global fit, His-tagged human VISTA captured
T1 construct: bought soluble protein (Sino Biological); also called hVISTA; human VISTA polypeptide

human CD47 = biological target: T2, human CD47 (human, UniProt Q08722 19-139); assay: BLI (Octet), His-tagged hCD47 on anti-Penta-HIS biosensor, antibody 1500-46.9 nM
T2 construct: also called hCD47

[2] = biological target: T3, mouse VISTA expressed on cells (mouse, UniProt Q9D659 33-308); assay: flow cytometry, HEK293-6E cells overexpressing mouse VISTA, FITC anti-human Fc
T3 construct: whole, on cells; also called murine VISTA on transfected cells; VISTA on mouse CD11b+ myeloid cells
T3 sequence (looked up): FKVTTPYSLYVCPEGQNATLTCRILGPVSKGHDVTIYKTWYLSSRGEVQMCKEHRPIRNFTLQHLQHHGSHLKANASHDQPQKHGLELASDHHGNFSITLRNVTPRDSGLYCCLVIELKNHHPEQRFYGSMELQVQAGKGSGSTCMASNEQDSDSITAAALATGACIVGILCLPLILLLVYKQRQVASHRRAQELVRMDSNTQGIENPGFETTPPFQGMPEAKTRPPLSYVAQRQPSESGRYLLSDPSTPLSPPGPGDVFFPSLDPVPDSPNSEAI

Kd [1]: < 1 pM
binding result (human CD47): no binding (tested: 1500 nM)
binding result [2]: no binding (tested: 1 ug/ml)
B1: VSTB112 IgG1 (antibody, V domains shown)
VH: QVQLVQSGAEVKKPGSSVKVSCKASGGTFSSYAISWVRQAPGQGLEWMGGIIPIFGTANYAQKFQGRVTITADESTSTAYMELSSLRSEDTAVYYCARSSYGWSYEFDYWGQGTLVTVSS
VL: DIQMTQSPSSLSASVGDRVTITCRASQSIDTRLNWYQQKPGKAPKLLIYSASSLQSGVPSRFSGSGSGTDFTLTISSLQPEDFATYYCQQSAYNPITFGQGTKVEIKR
